One substance from PMC8623215, “Zhaoshumycins A and B, Two Unprecedented Antimycin-Type Depsipeptides Produced by the Marine-Derived Streptomyces sp. ITBB-ZKa6” (Marine Drugs, 2021) can be followed below.

The subject of the data set is MCF7 human breast cancer cell line. Nature of the data set: Cytotoxic activity test, MTT method, MCF7 cells. It is filed as cell-based. To be noted: preliminary in vitro test. The text has this: To obtain preliminary information of the cytotoxic activity of compounds 1–6, we assessed their toxicity toward the MCF7 human breast cancer cell line. […] To further understand the structure–activity relationship, we speculated that the loss of toxicity for compounds 1–4 in MCF7 cells could be potentially attributed to the derivatization of the NH2 group at C-34, clearly signifying its importance in biological activity.
The cytotoxic activity of compounds 1–6 was in vitro evaluated using the human breast cancer cell line MCF7 (purchased from the Jiangsu Provincial Center for Disease Prevention and Control) according to the previously reported MTT method. Dimethyl sulfoxide (DMSO) was used to dissolve the tested compounds.
For orientation: Tetrazolium dyes change colour on reduction, which living cells bring about.

Consider neoantimycin E [Compound 6], for which the “cytotoxic activity (in words)” value was “weak cytotoxic activity”.
